# Apparent affinities of Ab-14 variants for a coronavirus HR2 peptide

Source: Li et al. 2023 (doi:10.1038/s41467-023-39022-2), MIT Lincoln Laboratory and A-Alpha Bio; data file from the FLAb repository.

Target: peptide PDVDLGDISGINAS, taken from heptad repeat 2 (HR2) of SARS-CoV-2 spike.

Parent scFv Ab-14: VH joined to VL by a 15-residue (Gly4Ser)3 linker. Changes lie in the heavy chain CDRs alone.
VH: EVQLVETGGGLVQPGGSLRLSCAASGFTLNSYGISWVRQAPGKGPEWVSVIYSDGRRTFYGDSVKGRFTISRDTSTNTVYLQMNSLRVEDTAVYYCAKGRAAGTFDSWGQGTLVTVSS
VL: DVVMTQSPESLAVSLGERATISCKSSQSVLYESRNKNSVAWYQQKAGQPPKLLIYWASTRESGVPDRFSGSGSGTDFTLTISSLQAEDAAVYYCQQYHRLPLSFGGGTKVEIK

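The parent was found by panning a naive human phage display library on the peptide. This is the validation round: designs drawn from the data on random variants, tested in the same kind of assay. Their group label is 14H_En_Gen (En: ensemble of fine-tuned language models; Gen: genetic algorithm). The scFvs were displayed on barcoded MATa yeast, the peptide on MATalpha yeast. After mating in shaken culture at 30 °C for 16 h, diploids were selected and their barcode pairs sequenced. Scores were corrected for input abundance and mapped to Kd with protein pairs of known affinity run in the same pool. The assay was run in six technical replicates.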

The parent's heavy chain CDRs are GFTLNSYGIS, VIYSDGRRTFYGDSVK, GRAAGTFDS; each variant's own CDRs replace them letter for letter.
Values are log10 of the apparent Kd in nM; lower means stronger binding.
A pair that was not seen in that replicate is written "nd"; this usually means weak binding, but a binder can also be missed.
Empty control strains, which show no peptide, gave a signal in 1% of pairings with all heavy chain designs; the median was 2.08 and 95% of these signals were weaker than 0.84. No background was subtracted. The control count says in how many pairings with the empty strains this scFv gave a signal, with their mean in brackets.

{"CDR-H1": "GFDLNEYGIS", "CDR-H2": "VIYADGKRTAYSDSVK", "CDR-H3": "GNTAGTFDL", "replicates, log10 nM": "0.02 -0.06 -0.40 -0.56 -0.59 -0.33", "empty controls": "0 of 18"}
{"CDR-H1": "GFDLDEYGIS", "CDR-H2": "VIYADGMRTAYTDSVK", "CDR-H3": "GNTAGTFDI", "replicates, log10 nM": "-0.19 -0.43 -0.51 -0.32 0.37 0.01", "empty controls": "0 of 18"}
{"CDR-H1": "GFDLDEYGIS", "CDR-H2": "VIYADGVRTAYADSVK", "CDR-H3": "GQNAGTFDV", "replicates, log10 nM": "-0.51 -0.18 -0.52 -0.50 -0.36 0.14", "empty controls": "0 of 18"}
{"CDR-H1": "GFDLNEYGIS", "CDR-H2": "VIYADGVRTAYADSVK", "CDR-H3": "GNVAGTFDM", "replicates, log10 nM": "-0.59 -0.54 -0.45 -0.58 -0.56 -0.46", "empty controls": "0 of 18"}
{"CDR-H1": "GFDLDEYGIS", "CDR-H2": "VIYADGMRTVYADSVK", "CDR-H3": "GNNAGTFDV", "replicates, log10 nM": "1.50 1.21 1.19 1.79 1.20 1.54", "empty controls": "0 of 18"}
{"CDR-H1": "GFDLNEYGIS", "CDR-H2": "VIYADGMRTAYIDSVK", "CDR-H3": "GENAGTFDI", "replicates, log10 nM": "-0.40 -0.75 -0.77 -1.19 -0.60 -0.60", "empty controls": "0 of 18"}
{"CDR-H1": "GFDLNEYGIS", "CDR-H2": "VIYADGMRTFYADSVK", "CDR-H3": "GNTAGTFDV", "replicates, log10 nM": "-0.14 -0.36 -0.39 -0.27 -0.63 -0.21", "empty controls": "0 of 18"}
{"CDR-H1": "GFDLNEYGIS", "CDR-H2": "VIYADGKRTAYADDVK", "CDR-H3": "GNVAGTFDT", "replicates, log10 nM": "-0.23 -0.50 -0.40 -0.53 -0.25 0.04", "empty controls": "1 of 18 (1.65)"}
{"CDR-H1": "GFDLNEYGIS", "CDR-H2": "VIYADGKRTAYADSVK", "CDR-H3": "GEVAGTFDV", "replicates, log10 nM": "-0.56 -0.49 -0.51 -0.33 -0.84 -0.41", "empty controls": "0 of 18"}
{"CDR-H1": "GFDLEEYGIS", "CDR-H2": "VIYADGKRTAYADSVK", "CDR-H3": "GNEAGTFDV", "replicates, log10 nM": "0.51 -0.25 -0.17 0.12 -0.27 0.30", "empty controls": "0 of 18"}
{"CDR-H1": "GFDLNEYGIS", "CDR-H2": "VIYADGMRTAYADDVK", "CDR-H3": "GNQAGTFDQ", "replicates, log10 nM": "-0.02 0.43 -0.55 -0.25 -0.34 0.38", "empty controls": "0 of 18"}
{"CDR-H1": "GFDLEDYGIS", "CDR-H2": "VIYADGQRTAYADSVK", "CDR-H3": "GNVAGTFDV", "replicates, log10 nM": "-0.31 -0.88 -1.01 -1.23 -1.02 -0.80", "empty controls": "1 of 18 (0.08)"}
{"CDR-H1": "GFDLNEYGIS", "CDR-H2": "VIYADGSRTAYSDSVK", "CDR-H3": "GNVAGTFDI", "replicates, log10 nM": "0.12 0.22 -0.18 -0.23 0.28 0.46", "empty controls": "0 of 18"}
{"CDR-H1": "GFDLNEYGIS", "CDR-H2": "VIYADGLRTAYADSVK", "CDR-H3": "GENAGTFDI", "replicates, log10 nM": "0.07 0.12 -0.17 -0.32 0.24 0.30", "empty controls": "0 of 18"}
{"CDR-H1": "GFDLNEYGIS", "CDR-H2": "VIYADGLRTFYADSVK", "CDR-H3": "GENAGTFDV", "replicates, log10 nM": "-0.24 -0.34 -0.22 -0.53 -0.32 -0.33", "empty controls": "0 of 18"}
{"CDR-H1": "GFNLDEYGIS", "CDR-H2": "VIYADGMRTAYSDSVK", "CDR-H3": "GNQAGTFDV", "replicates, log10 nM": "nd 0.51 0.91 -0.15 0.17 0.69", "empty controls": "0 of 18"}
{"CDR-H1": "GFDLNEYGIS", "CDR-H2": "VIYADGKRTAYADDVK", "CDR-H3": "GNTAGTFDI", "replicates, log10 nM": "-0.33 -0.51 -0.70 -0.74 -0.49 -0.23", "empty controls": "1 of 18 (3.49)"}
{"CDR-H1": "GFDLNEYGIS", "CDR-H2": "VIYADGQRTAYADSVK", "CDR-H3": "GEVAGTFDQ", "replicates, log10 nM": "-0.33 -0.19 -0.51 -0.77 -0.56 -0.38", "empty controls": "0 of 18"}
{"CDR-H1": "GFDLNEYGIS", "CDR-H2": "VIYADGKRTAYSDSVK", "CDR-H3": "GNNAGTFDL", "replicates, log10 nM": "-0.23 -0.20 -0.58 -0.54 -0.51 -0.29", "empty controls": "1 of 18 (2.30)"}
{"CDR-H1": "GFDLNEYGIS", "CDR-H2": "VIYADGKRTAYADTVK", "CDR-H3": "GENAGTFDV", "replicates, log10 nM": "nd nd nd 1.71 0.69 nd", "empty controls": "0 of 18"}

Repeated from above, the 3 best binders with a signal in all replicates:

| CDR-H1 | CDR-H2 | CDR-H3 | replicates, log10 nM | empty controls |
|---|---|---|---|---|
| GFDLEDYGIS | VIYADGQRTAYADSVK | GNVAGTFDV | -0.31 -0.88 -1.01 -1.23 -1.02 -0.80 | 1 of 18 (0.08) |
| GFDLNEYGIS | VIYADGMRTAYIDSVK | GENAGTFDI | -0.40 -0.75 -0.77 -1.19 -0.60 -0.60 | 0 of 18 |
| GFDLNEYGIS | VIYADGVRTAYADSVK | GNVAGTFDM | -0.59 -0.54 -0.45 -0.58 -0.56 -0.46 | 0 of 18 |

The authors' rule: three or more of the six replicates give a measured affinity, fewer mean a poor binder.
Values of this round are not directly comparable with the first-round values of the same sequences.